Test results taken from patent publication US20240368139A1, “NOVEL MODULATORS OF EHMT1 AND EHMT2 AND THERAPEUTIC USE THEREOF” (Tango Therapeutics, Inc., priority 2021, published 2024).
pIC50: −log10 of the molar value.

Target: T1, human EHMT2 913-1193 (Homo sapiens, UniProt Q96KQ7)
T1 sequence (Q96KQ7 913-1193): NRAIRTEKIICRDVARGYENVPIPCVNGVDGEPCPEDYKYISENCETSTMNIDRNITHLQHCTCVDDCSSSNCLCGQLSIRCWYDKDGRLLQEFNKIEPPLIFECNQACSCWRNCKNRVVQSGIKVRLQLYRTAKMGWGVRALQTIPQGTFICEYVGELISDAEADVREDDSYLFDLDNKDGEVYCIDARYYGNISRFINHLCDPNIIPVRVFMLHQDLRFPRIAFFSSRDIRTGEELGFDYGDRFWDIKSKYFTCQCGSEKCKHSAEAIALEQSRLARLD
Assay: EHMT2 enzyme assay on histone peptide substrate (3H-SAM SPA)
Conditions: EHMT2 IC50, recombinant human EHMT2 913-1193, histone peptide substrate

For `CNc1cc(C)nc(Nc2ccc(OC)c(C3=CCN(C)CCC3)c2)n1` [Reference Compound A, reference compound], the pIC50 was 6.30 to 7.00.
